Biological target: T1, insulin receptors (Rattus norvegicus, UniProt P15127)
T1 construct: plasma membranes (20-40 μg of protein) in 0.1M sodium phosphate, pH 7.4; from tissue; host or cells: rat liver plasma membrane fraction
Test: Insulin receptor binding assay (inhibition of specific 125I-insulin binding)
Settings: rat liver plasma membranes; relative to the natural hormone (unlabelled insulin); 45 min at 24° C.
Text: In this Example the materials used and the analytical procedures followed are those found in Kitagawa et al., Biochemistry, 23: 1405-1413 (1984). ^125 I-insulin for receptor binding studies and [3-^3 H] glucose for lipogenesis were obtained from DuPont NEN Research Products. Cellulose acetate membrane filters, 0.2 μm pore size, were products of Sartorius. Glass-fiber filters, Type GFC, were from Whatman. Collagenase, Type II crude, was obtained from Worthington. The scintillation fluids Filtron-X®, Hydrofluor® and Soluscint-O® were products of National Diagnostics. Crystalline bovine insulin was from Sigma, and fatty-acid free bovine serum albumin from Boehringer - Mannheim Biochemicals.
The first two procedures were done in accordance with Burke et. al, Biochemistry 19:4547-4556, (1980).
Briefly, triplicate 0.2 ml incubations contained ^125 I-insulin, 3×10^-10 M, unlabelled insulin or [Trp^14 -A] insulin prepared as in Example 1, and plasma membranes (20-40 μg of protein) in 0.1M sodium phosphate, pH 7.4, containing 0.6% fraction V bovine serum albumin. […] The filters were washed twice with the ice cold buffer, dried, and then radioactivity was counted in a scintillation counter using Filtron-X®.

Protein sequences, listed by entry. Tags and fused reporters are not part of them. Residues count along the entry.
UniProt P15127, 27-759 limits assumed: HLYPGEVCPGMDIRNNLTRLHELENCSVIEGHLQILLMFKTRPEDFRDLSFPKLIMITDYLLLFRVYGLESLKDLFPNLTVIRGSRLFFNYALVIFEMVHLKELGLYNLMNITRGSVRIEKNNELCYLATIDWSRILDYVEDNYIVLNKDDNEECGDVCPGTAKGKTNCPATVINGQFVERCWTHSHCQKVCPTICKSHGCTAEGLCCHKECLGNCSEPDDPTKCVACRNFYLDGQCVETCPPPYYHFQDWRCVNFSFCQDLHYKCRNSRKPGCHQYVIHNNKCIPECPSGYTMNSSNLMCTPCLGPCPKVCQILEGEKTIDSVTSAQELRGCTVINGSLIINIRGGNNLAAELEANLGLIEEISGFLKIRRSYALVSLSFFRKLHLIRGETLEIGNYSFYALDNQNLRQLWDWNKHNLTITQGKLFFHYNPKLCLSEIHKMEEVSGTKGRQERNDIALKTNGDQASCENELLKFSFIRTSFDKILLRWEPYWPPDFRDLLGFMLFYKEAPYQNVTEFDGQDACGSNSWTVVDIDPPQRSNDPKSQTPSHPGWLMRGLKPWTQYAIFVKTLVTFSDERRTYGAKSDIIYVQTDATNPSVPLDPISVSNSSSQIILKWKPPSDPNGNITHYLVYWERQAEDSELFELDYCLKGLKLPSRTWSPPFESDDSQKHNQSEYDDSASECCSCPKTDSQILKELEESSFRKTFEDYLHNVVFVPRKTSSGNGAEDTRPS
UniProt P15127, 764-1383 partner limits assumed: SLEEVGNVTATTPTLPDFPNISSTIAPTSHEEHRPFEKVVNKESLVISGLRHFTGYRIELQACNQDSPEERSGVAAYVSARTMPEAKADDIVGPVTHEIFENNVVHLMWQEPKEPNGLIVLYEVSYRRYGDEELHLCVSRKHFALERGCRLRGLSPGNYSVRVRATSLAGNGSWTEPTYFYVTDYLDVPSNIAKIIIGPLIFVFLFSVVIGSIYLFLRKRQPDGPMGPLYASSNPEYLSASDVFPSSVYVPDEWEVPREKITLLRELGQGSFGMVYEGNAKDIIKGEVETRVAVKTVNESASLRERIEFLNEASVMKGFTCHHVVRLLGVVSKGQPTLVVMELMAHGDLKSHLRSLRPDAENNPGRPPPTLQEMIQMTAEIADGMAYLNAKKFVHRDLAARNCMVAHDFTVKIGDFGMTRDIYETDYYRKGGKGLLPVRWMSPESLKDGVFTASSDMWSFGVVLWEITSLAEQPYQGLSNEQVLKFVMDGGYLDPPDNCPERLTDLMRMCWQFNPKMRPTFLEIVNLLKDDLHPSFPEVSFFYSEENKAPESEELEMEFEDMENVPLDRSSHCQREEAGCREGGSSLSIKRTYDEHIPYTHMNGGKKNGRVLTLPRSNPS

## [Trp^14 -A] insulin
  Relative potency in inhibiting 50% of the specific binding of 125I-insulin to the receptor preparation: about 60%
